Results taken from paper PMC6912361, “Systemic Toxicity Reported for CDK8/19 Inhibitors CCT251921 and MSC2530818 Is Not Due to Target Inhibition” (Cells, 2019).
Where two headings read alike, the source gives them in different places.

The chains behind the UniProt entries cited, without tags or fusion partners. Where a name states a change or a piece, a line headed by the entry shows the natural chain unless it says otherwise.
UniProt Q9BWU1: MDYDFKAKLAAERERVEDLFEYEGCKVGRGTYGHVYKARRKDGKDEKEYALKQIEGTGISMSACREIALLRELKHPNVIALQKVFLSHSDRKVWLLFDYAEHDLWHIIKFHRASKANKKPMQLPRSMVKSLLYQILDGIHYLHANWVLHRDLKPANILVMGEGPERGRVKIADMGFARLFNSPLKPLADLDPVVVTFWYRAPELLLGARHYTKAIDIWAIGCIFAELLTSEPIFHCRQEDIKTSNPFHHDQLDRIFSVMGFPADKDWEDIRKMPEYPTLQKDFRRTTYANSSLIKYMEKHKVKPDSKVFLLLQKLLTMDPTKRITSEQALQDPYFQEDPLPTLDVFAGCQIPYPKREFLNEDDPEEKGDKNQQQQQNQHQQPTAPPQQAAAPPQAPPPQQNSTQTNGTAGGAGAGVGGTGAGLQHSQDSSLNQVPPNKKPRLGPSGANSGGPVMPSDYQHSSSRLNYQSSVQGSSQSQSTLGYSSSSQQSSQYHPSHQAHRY

Tests used:
CDK19 [1] = target: T1, CDK19 (Homo sapiens, UniProt Q9BWU1); assay: KdELECT Kd determination, CDK19; parameters: purchased DiscoverX; conditions: 11-point 3-fold serial dilution, duplicate; read-out: Kd for the inhibition of nucleotide binding, CDK19 (DiscoveRx symbol CDK11)
Description: To determine dissociation constants (Kds) of compounds on different targets, an 11-point 3-fold serial dilution of each test compound was tested in independent duplicate assays.

CDK19 [2] = target: T1, CDK19; assay: Cell-based QPCR assay of CDK8/19-dependent gene expression, HEK293 CDK8 single-knockout (8KO) cells; parameters: CDK8 single-knockout (8KO); endogenous in cells; host or cells: HEK293 CDK8 knockout (8KO); conditions: HEK293 8KO, 1 h pre-treatment, then 10 ng/mL TNFα 2 h

Compound: CN1CCN(C(=O)c2ccc3cc(CCNc4ncnc5ccc(C#N)cc45)ccc3c2)CC1 [Senexin B]
- Kd (CDK19 [1]): 23 nM
- IC50 (CDK19 [2]; read-out: IC50, CXCL1 mRNA expression, 8KO): 67 nM
- IC50 (CDK19 [2]; read-out: IC50, CXCL8 mRNA expression, 8KO): 67 nM
- IC50 (CDK19 [2]; read-out: IC50, MYC mRNA expression, 8KO): 49 nM
